Test results reported in ChEMBL document CHEMBL1125049, “Aporphines as antagonists of dopamine D-1 receptors” (J Med Chem, 1990).

By UniProt entry, the sequences of proteins in these tests, tags left out.
UniProt P61169, whole entry: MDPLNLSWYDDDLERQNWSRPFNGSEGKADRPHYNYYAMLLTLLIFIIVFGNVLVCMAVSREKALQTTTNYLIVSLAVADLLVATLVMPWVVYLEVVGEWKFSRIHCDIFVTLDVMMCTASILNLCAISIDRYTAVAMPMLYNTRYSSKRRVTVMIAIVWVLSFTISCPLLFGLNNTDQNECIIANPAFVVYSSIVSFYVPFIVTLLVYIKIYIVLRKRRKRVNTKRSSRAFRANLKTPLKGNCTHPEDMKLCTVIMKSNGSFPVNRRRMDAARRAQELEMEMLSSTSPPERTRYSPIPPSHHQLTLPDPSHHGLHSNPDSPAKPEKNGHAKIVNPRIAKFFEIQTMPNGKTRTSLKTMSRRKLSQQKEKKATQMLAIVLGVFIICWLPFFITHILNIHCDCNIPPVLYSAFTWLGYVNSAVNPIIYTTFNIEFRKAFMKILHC

Molecular target: D(2) dopamine receptor (Rattus norvegicus, UniProt P61169)
Test: In vitro binding affinity towards rat Dopamine receptor D2 by [3H]spiperone displacement.

Row | Structure (SMILES) | IC50
1 | CN1CCc2cccc3c2[C@@H]1Cc1ccc(O)c(O)c1-3 [(S)APOMORPHINE] | 680 nM
2 | CN1CCc2cccc3c2[C@H]1Cc1ccc(O)c(O)c1-3 [APOMORPHINE] | 21 nM
